Experimental data reported in patent publication US20180369399A1, “POLYMER CONJUGATES HAVING REDUCED ANTIGENICITY AND METHODS OF USING THE SAME” (Duke University, priority 2015, published 2018).

Protein sequences, listed by entry. Tags and fused reporters are not part of them. Residues count along the entry.
UniProt P32301, 22-463: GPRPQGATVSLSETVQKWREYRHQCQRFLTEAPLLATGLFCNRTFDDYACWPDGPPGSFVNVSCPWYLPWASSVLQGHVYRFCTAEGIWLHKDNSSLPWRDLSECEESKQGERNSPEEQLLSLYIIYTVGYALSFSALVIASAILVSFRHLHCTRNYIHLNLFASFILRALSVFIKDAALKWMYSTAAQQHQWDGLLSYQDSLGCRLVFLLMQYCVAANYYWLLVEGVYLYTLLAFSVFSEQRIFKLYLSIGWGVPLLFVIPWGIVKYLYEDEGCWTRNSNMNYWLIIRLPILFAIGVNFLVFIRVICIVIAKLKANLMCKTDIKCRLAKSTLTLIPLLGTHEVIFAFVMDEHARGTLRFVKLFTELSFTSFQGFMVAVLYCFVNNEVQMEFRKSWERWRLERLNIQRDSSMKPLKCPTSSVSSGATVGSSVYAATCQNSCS

Target: rat GLP-1R (rat) (UniProt P32301)
Assay: cell-based or functional assay

Substance “66.2 kDa EG9 exendin-C-POEGMA conjugate (from UniProt P26349 48-86) (peptide)” has an EC50 (nM) of intracellular cAMP release in BHK cells stably transfected with rat GLP-1R of 2.1 nM.
